These are literature values, as cited in patent US11787865B2, “Bifunctional molecules for lysosomal targeting and related compositions and methods” (The Board of Trustees of the Leland Stanford Junior …, priority 2018, dated 2023).

This data set concerns HCC. The following applies: HCC patients; cited from earlier work.

For the substance Cetuximab, the clinical outcome is given as “failed in Phase II Clinical Trials”.
